# Assay results from US9358307B2, “Targeting of innate immune response to tumor site” (GAVISH-GALILEE BIO APPLICATIONS LTD., priority 2008, dated 2016).
# Assays:
# [1] = system: SK-BR-3 cells; assay: FACS binding of microbeads (Biomag™ particles, F-Beads) carrying anti-HER2 and LPS to SK-BR-3 cells; parameters: species or system human; settings: FACS density blots; for fluorescent cell beads complexes in upper right (ur) quadrant: F-Beads 2 μm
# Protocol: Samples were fluorescently stained with goat anti human Fc-FITC Ab's. 1 (black-filled red histogram): cells incubated with uncoated Biomag™; 2 (black histogram): cells incubated with Biomag™ bound to Biot-anti-HER2 Ab's; 3 (dark blue histogram): cells incubated with Biomag™ bound to 75% Biot-anti-HER2 Ab's and 25% Biot-LPS; 4 (purple histogram): cells incubated with Biomag™ bound to 50% Biot-anti-HER2 Ab's and 50% Biot-LPS; 5 (green histogram): cells incubated with Biomag™ bound to 25% Biot-anti-HER2 Ab's and 75% Biot-LPS; and 6 (light blue histogram): cells incubated with Biomag™ bound to Biot-LPS. […] No significant differences in fluorescence were shown between the samples containing Ab's at various ratios with LPS. […] Samples were fluorescently stained with goat anti-human Fc-FITC Ab's. SK-BR-3 cells were incubated with Biomag™ carrying: […] (B) Biot-anti-HER2 Ab's (Y-Mean 87.8); (C) 25% Biot-anti-HER2 and 75% Biot-LPS (Y-Mean 41.8); (D) 75% Biot-anti-HER2 Ab's and 25% Biot-LPS (Y-Mean 100.8); (E) 50% Biot-anti-HER2 Ab's and 50% Biot-LPS (Y-Mean 70.3); and (F) Unbound Biomag™ (Y-Mean 4.8). […] No significant differences in fluorescence were shown between the samples containing Ab's. […] Blots divided to quadrants, fluorescent cell beads complexes are shown in the upper right quadrant. SK-BR-3 cells were incubated with F-Beads carrying: (A) No beads, negative control (upper right (ur) 0.1%); (B) Cells incubated with soluble anti-HER2 stained with Goat anti human Fc-FITC Ab's, positive control (ur 96.9%); (C) Uncoated, empty beads (1) (ur 1.7%); […] (F) Biot-anti HER2, Anti HER2 beads (4) (ur 54.5%); […] Samples were fluorescently stained with goat anti human Fc-FITC Abs and examined by FACS.
# [2] = system: SK-BR-3 human breast cancer cells expressing HER2; assay: FACS binding of biotinylated anti-HER2 mAb to SK-BR-3 cells; settings: stained with streptavidin-FITC
# Protocol: Monoclonal anti-HER2 Ab's were chemically conjugated to biotin. Biot-anti-HER2 were incubated with SK-BR-3 cells that were stained with streptavidin-FITC (STAVF). Incubated samples were then read by FACS. In the figure: 1 (black-filled red histogram): negative control (nc)—cells incubated only with STAVF; 2 (blue histogram): positive control (pc)—cells incubated with anti-HER2 Ab's stained with goat anti human Fc-FITC Ab's; 3 (black histogram): cells incubated with Biot-anti-HER2 Ab's and stained by STAVF; and 4 (green histogram): cells incubated with Biot not relevant Ab's and stained by STAVF.
# Monoclonal anti-HER2 antibody (anti-HER2, Herceptin) was biotinylated using the Sulfo-NHS-LC-Biotin kit (Pierce) according to the manufacturer's instructions. Biotinylation rate was determined by HABA test (Acros, USA) according to the manufacturer's instructions. The ability of the biotinylated mAb (Biot-anti-HER2) to detect HER2 was examined by incubation with target cells (SK-BR-3 human breast cancer cells expressing HER2, ATCC) that were stained with STAVF (streptavidin-FITC, Jackson ImmunoResearch). Incubated samples were then examined using Flow Cytometry (FACS).
Substance,fluorescent cell beads complexes in upper right (ur) quadrant [1] [%],also measured
Anti HER2 beads: avidin-coated fluorescent polystyrene beads 2 μm (F-Beads) carrying Biot-anti HER2,54.5,
Biomag™ carrying Biot-anti-HER2 Ab's: avidin-coated approx. 1.5 μm Biomag™ iron oxide particles bound to biotinylated anti-HER2 antibody (Herceptin),,"Y-Mean ([1]; Biomag™ particles, stained with goat anti-human Fc-FITC Ab's): 87.8"
Biot-anti HER2: monoclonal anti-HER2 antibody (Herceptin) biotinylated with Sulfo-NHS-LC-Biotin,,binding to SK-BR-3 cells (HER2 positive) [2]: binding
"Trastuzumab [soluble anti-HER2, reference compound]",96.9,
